The target of this experiment is T1, Androgen Receptor (Homo sapiens, UniProt P10275).
T1 construct: endogenous in cells; host or cells: VCaP cells
Kind of experiment: Androgen Receptor ELISA assay (PathScan AR ELISA) in VCaP cells: AR degradation, Dmax and DC50. The format is cell-based. The note with it: Table 36. The procedure: 1. Androgen Receptor ELISA Assay.
The protocols used with VCaP cells are described below. The androgen receptor ELISA assay was performed using PathScan AR ELISA (Cell Signaling Catalog #12850) according to the following assay steps:
VCaP cells are seeded at 30,000 cells/well at a volume of 200 μL/well in VCaP assay medium [Phenol red free RPMI (Gibco Cat #11835-030); 5% Charcoal Stripped (Dextran treated) FBS (Omega Scientific, Cat #FB-04); Pen/Strep Life Technologies (Gibco Cat #: 10378-016); 0.1 nM R1881 (Sigma, Cat #R0908) is added upon the start of the assay, not during initial plating of the cells) in Corning 3904 plates. The cells are grown for a minimum of 3 days. […]
Add 100 μL/well AR Elisa; cover and shake, 37 C for 2 hrs; dump, tap, wash 4×200 μL ELISA wash buffer; add 100 μL/well mouse AR detection Ab; cover and shake, 37 C for 1 hr; dump, tap, wash 4×200 μL ELISA wash buffer; add 100 μL/well anti-mouse—HRP conjugated Ab (comes with the kit); cover and shake, 37 C for 30 min; allow TMB reagent to come to room temperature; dump, tap, wash 4×200 μL Elisa wash buffer; tap; add 100 μL TMB, shake 5 min—while watching color. […] Add 100 μL Stop solution; shake and read at 450 nm.

Sequences of proteins named here, by UniProt entry; tags and fusion partners are left off. A change or cut given only in a name is not applied to a line headed by its entry.
UniProt P10275: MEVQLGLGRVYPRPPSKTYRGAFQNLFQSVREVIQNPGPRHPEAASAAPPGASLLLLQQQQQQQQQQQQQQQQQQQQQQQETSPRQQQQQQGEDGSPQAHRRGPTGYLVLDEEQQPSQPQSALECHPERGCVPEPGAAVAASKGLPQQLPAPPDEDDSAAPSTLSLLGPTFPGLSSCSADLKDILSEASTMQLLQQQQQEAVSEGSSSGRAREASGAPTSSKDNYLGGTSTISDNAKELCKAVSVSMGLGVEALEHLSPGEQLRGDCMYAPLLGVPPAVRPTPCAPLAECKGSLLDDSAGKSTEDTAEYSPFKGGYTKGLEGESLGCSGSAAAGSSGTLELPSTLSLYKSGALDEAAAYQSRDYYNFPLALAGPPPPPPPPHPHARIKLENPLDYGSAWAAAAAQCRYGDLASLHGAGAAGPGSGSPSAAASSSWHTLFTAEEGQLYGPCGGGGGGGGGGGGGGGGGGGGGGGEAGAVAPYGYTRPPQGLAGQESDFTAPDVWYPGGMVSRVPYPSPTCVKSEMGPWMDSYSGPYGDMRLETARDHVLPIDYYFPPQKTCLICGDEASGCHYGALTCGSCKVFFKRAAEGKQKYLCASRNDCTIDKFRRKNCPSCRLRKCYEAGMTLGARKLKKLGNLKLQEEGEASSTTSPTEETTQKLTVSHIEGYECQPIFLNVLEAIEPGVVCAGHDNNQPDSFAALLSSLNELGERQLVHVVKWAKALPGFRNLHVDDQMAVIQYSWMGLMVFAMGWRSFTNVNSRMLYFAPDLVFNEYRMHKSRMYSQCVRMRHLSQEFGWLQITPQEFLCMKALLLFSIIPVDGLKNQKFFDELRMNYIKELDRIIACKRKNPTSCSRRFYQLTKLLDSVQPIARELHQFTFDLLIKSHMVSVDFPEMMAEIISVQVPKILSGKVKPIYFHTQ

Take “N-((1r,3R)-3-(3-chloro- 4-cyanophenoxy)- 2,2,4,4- tetramethylcyclobutyl)- 6-((2S,6R)-4-(2-(2- (((S)-1-((2S,4R)-4- hydroxy-2-(((R)-2- hydroxy-1-(4-(4- methylthiazol-5-yl) phenyl)ethyl) carbamoyl)pyrrolidin- 1-yl)-3,3-dimethyl-1- oxobutan-2-yl)amino)- 2-oxoethoxy)ethyl)- 2,6-dimethylpiperazin- 1-yl)nicotinamide [Example 844]”: the DC50 is under 50 nM and the “VCaP Dmax (%)” value is given as “++++ (71% ≤ Dmax)”.

For the origin of these results see patent US11427548B2 (Arvinas Operations, Inc., priority 2015, dated 2022).
